Where two headings read alike, the source gives them in different places.
How the values were obtained:
[1] = target: thermolysin (Bacillus thermoproteolyticus, UniProt P00800); details: 37° C.
[2] = test system: proline endopeptidase; details: 37° C., 24 hours

Protein sequences, listed by entry. Tags and fused reporters are not part of them. Residues count along the entry.
UniProt P00800, 233-548, species assumed: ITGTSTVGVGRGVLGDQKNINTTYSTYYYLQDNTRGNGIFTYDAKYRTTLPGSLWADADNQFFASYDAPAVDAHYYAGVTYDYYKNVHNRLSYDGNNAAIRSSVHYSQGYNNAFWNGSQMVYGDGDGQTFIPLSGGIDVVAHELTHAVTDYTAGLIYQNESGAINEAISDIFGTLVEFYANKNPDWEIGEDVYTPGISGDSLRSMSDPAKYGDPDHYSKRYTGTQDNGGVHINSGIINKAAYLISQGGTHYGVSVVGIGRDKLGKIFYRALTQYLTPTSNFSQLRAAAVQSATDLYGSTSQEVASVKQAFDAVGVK

## BzlO-PEG-Ala-Val-Compound (12) [Compound (X-1)]
[1]; 5 hours
  cleavage efficiency: 78%

## HO-PEG-Gly-Pro-ADM [Compound (XI-3)]
[2]
  cleavage efficiency: 50%

## HO-PEG-Ala-Val-ADM [Compound (XI-1)]
[1]; 24 hours
  cleavage efficiency: 100%

From patent US6638509B1, “Toxin conjugates” (Kyowa Hakko Kogyo, Co., Ltd., priority 1995, dated 2003)
